Drawing on ChEMBL document CHEMBL2385020, “Evaluation of N-phenyl homopiperazine analogs as potential dopamine D3 receptor selective ligands” (Bioorg Med Chem, 2013), this text covers Ratio Ki for seven compounds.

The species named for the test is Homo sapiens. The test can be described thus: Selectivity ratio of Ki for human dopamine D2L receptor to Ki for human dopamine D3 receptor. A digest of the protocol: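 Non-specific binding defined with 20 μM (+)-butaclamol. Ki from at least three experiments. Ratio taken as D2 Ki over D3 Ki.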
With `COc1ccccc1N1CCCN(CCCCNC(=O)c2ccc(Br)nc2)CC1`, the Ratio Ki amounted to 8.
With `COc1ccccc1N1CCCN(CCCCNC(=O)c2ccc(F)cc2)CC1` the figure was 11; with `COc1ccccc1N1CCCN(CCCCNC(=O)c2ccc(SC)cc2)CC1`, 35; with `COc1ccccc1N1CCCN(CCCCNC(=O)c2ccc(Cl)cc2)CC1`, 30.
For `COc1ccccc1N1CCCN(CCCCNC(=O)c2ccc(CCO)cc2)CC1` the value was 11; for `COc1ccccc1N1CCCN(CCCCNC(=O)c2cc3ccccc3[nH]2)CC1`, 56.
For `COc1ccccc1N1CCCN(CCCCNC(=O)c2ccc(Cl)nc2)CC1` the value was 8.
